Columns and labels:
[1] = test system: rat heart rate and blood pressure; test: In vivo rat heart rate and blood pressure; conditions: anesthetized rats, intravenous
Description: Rats were anesthetized with urethan and blood pressure was monitored via a carotid cannula. Drug injections were made intravenously through a jugular cannula. Blood pressure, EGC, and heart rate were recorded on a Grass polygraph.

adenosine receptors = conditions: cited from earlier work

| Structure (SMILES) | blood pressure [1] | receptor selectivity (adenosine receptors) | antagonism at adenosine receptors (adenosine receptors) |
| --- | --- | --- | --- |
| CCNC(=O)[C@H]1O[C@@H](n2cnc3c(N)ncnc32)[C@H](O)[C@@H]1O [NECA, 5'-N-ethylcarboxamido-adenosine] | decrease in blood pressure | selective for A2 adenosine receptors |  |
| Cn1c(=O)c2[nH]cnc2n(C)c1=O [theophylline] |  |  | best known antagonists at adenosine receptors |

— patent US5117830A, “Method of determining viability of tissue” (priority 1990, dated 1992)
